# scFv variants of Ab-95 (light chain) against a SARS-CoV-2 spike peptide

Source: Engelhart et al. 2022 (doi:10.1038/s41597-022-01779-4), MIT Lincoln Laboratory and A-Alpha Bio; data file from the FLAb repository.

Binding partner: SARS-CoV-2 spike HR2 peptide, sequence PDVDLGDISGINAS.

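The starting antibody came from a phage panning campaign against this peptide. The library (AAYL52) carries one to three amino acid substitutions per variant, with no insertions or deletions. In AlphaSeq, yeast of one mating type display the scFv and yeast of the other type display the target. After mating in shaken culture at 30 °C for 16 h, diploids were selected and their barcode pairs sequenced. A regression on co-assayed BCL2-family reference pairs converts the normalised counts of each replicate to an apparent Kd. There are three technical replicates.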

Each scFv is VH, a 15-residue (Gly4Ser)3 linker, VL, as in the parent Ab-95, and differs from it in the CDRs of the light chain only.
VH: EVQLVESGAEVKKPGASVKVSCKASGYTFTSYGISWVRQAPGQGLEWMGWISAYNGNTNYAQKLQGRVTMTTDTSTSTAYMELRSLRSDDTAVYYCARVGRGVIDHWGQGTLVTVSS
VL: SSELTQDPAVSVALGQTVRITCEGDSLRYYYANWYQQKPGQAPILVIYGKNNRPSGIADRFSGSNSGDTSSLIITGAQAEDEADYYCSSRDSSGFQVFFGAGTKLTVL

Variants are written as CDR1, CDR2 and CDR3 of the light chain (limits as in the source). Parent: EGDSLRYYYAN, GKNNRPS, SSRDSSGFQVF.
All variants listed here change E23 of the VL, counted from its first residue.
Affinities are written as log10 Kd with Kd in nM; a lower number is a better binder.
A mean of the replicates is given; it leaves out those without a signal.
"nd" means that the variant was in the library but no mating with the target was seen in that replicate; the authors take this as a sign of poor binding, and no number exists.
Three control strains display no target. For library AAYL52, 28% of the pairings with them gave a signal, with a median of 3.91 and one signal in twenty below 2.90, so weak values seen in few replicates may be background.

For QGDSLRYYYAN | GQNNRPN | SSRDSSGFQVF, the assay gave 1.41, 1.31, 0.95 (mean 1.22). Variant FGYSLRYYYAN | GKNNRPS | SSRDSSGFQVT showed 5.16, 3.71, 3.12 (mean 4.00). For TGDSLRYYYAN | GENNRPS | SSRDSSGFQHF, the assay gave nd, 2.58, nd. With TGDSLRYYYAN | GKNNYPS | SSRDNSGFQVF the result was 3.50, 3.58, 2.95 (mean 3.34). With SGDSLRYYYAN | GKNNRSS | SSRDSSGFFVF the result was 2.44, 2.23, 2.34 (mean 2.34). With TGDSLRYYYAN | GKNNRPS | SSRPSSGQQVF the result was 2.33, 2.34, 2.04 (mean 2.24). With FGDSLRYYYAN | GHNNRPS | SSRDSSLFQVF the result was 3.36, 5.41, nd (mean 4.39). Variant HGDSLRYYYAN | GKNNIPS | SSDDSSGFQVF showed 3.18, 3.01, 3.48 (mean 3.22).

With VGDSLRYYYAN | YKNNRPS | SSRDSSGFQRF the result was nd, nd, nd. With SGDSTRYYYAN | GKNNRPS | SSRDSDGFQVF the result was 3.62, 3.12, 2.90 (mean 3.21). For HGDSLRYYYAN | GKNNRPS | GSRYSSGFQVF, the assay gave 3.79, 5.87, nd (mean 4.83). For FDDSLRYYYAN | GKNNRPS | SSRDSSGFQVF, the assay gave nd, nd, 2.95. Variant AGDSLRYSYAN | GKNNRPS | SSRDSSGFQVF gave 0.67, 0.63, -0.04 (mean 0.42). Variant WGFSLRYYYAN | GKNNRTS | SSRDSSGFQVF showed 2.99, 2.88, 3.44 (mean 3.10). Variant FGDSYRYYYAN | GKNNRPS | SSRDSSGRQVF showed 3.43, 3.73, 3.06 (mean 3.41). For TGDSLRYYNAN | GKNNRPS | SSRLSSGFQVF, the assay gave 1.46, 1.56, 1.21 (mean 1.41).

Variant FGDSLRYYYDH | GKNNRPS | SSRDSSGFQVF gave 2.69, 2.76, nd (mean 2.73). Variant PGDSLRYYYMN | GKNNRPS | SSRDSSGFQVF gave nd, nd, nd. With KGDSLRYYYAN | GKNWRPS | SSRDSSGFQVI the result was 5.20, 2.23, 3.13 (mean 3.52). Variant LGDSLRYYYAN | GKNNNPS | SSRDSSGFQVY gave nd, 4.14, 4.04 (mean 4.09). Variant YGDSLRYYYLC | GKNNRPS | SSRDSSGFQVF gave nd, nd, nd. Variant SGDSLRYYYAN | GKDCRPS | SSRDSSGFQVF gave 3.91, 5.83, nd (mean 4.87). Variant TGDSLRYYYAF | GKNNRPS | SSRDSSMFQVF gave nd, 5.49, 4.40 (mean 4.94). With LGDSFRYYYAN | GKNNRPS | SSRDSSGFQVF the result was 2.81, 2.79, 3.63 (mean 3.08).

Variant QGDSLRYIYAN | IKNNRPS | SSRDSSGFQVF gave nd, nd, nd. With KGDSLRYYYAN | GKNNMPS | SSRDSSGFQVL the result was 2.62, 2.52, 1.81 (mean 2.32). Variant CGDSLRYYYAN | GKNNREI | SSRDSSGFQVF showed 3.14, 2.90, 3.74 (mean 3.26). Variant QGDSLRYYYAN | GLENRPS | SSRDSSGFQVF gave 2.82, 2.48, 3.30 (mean 2.87). Variant KGDSLRYYYAN | YKNNRPS | SSRDSSGFQVF gave 2.93, 2.90, nd (mean 2.92). Variant HGDSLRYYYAN | GKNNRPS | SSHDNSGFQVF gave nd, nd, nd. Variant CGDSLRYFYAN | GKSNRPS | SSRDSSGFQVF gave 2.28, 2.16, 1.55 (mean 2.00). Variant QGDSLRYYYAN | GKNNRPS | SSRDSSQFVVF showed 2.79, 2.90, 2.48 (mean 2.72).

Variant KGDSLRYYYAN | GKNNRPS | SSRDSSKFQVG gave 2.61, 3.83, 3.05 (mean 3.16). With PGDSCRYYYAN | GKNNRPS | SSRDSSGFQVF the result was 3.86, 4.71, nd (mean 4.28). For FGDSLRYYYAN | GKNNRPS | SSPDSSGFQVF, the assay gave 3.99, 3.80, 4.71 (mean 4.16). With PGDSLRYYYAN | GKNNRPS | SERDSSGFQVF the result was nd, nd, nd. Variant CGDSLRYYYAN | GKNNRPS | KSRDSSGFQVG showed 2.80, 2.87, 3.07 (mean 2.91). Variant HGDSLRKYYAN | GKNNRPS | SSRDSSGFQVF showed 2.62, 2.07, 2.01 (mean 2.24). For AGDSLRYYYAN | GKNNRPS | ISRDSSGFEVF, the assay gave 3.13, nd, nd. Variant HGDSLRYYYAN | GKFNRPS | MSRDSSGFQVF gave 3.91, nd, 3.19 (mean 3.55).

For RGDSLRYYYAN | GKKNRPS | SSRDSSGFQVR, the assay gave nd, nd, 4.42. For TGDSLRYYLAN | GKNNRPS | SSRDTSGFQVF, the assay gave 1.89, 1.74, 1.53 (mean 1.72). For AGDSLDYYYAN | GKNNRPS | SSWDSSGFQVF, the assay gave nd, nd, nd.